Experimental data from ChEMBL document CHEMBL1141047, “4-Phenyl-1,2,3,6-tetrahydropyridine, an excellent fragment to improve the potency of PARP-1 inhibitors” (Bioorg Med Chem Lett, 2005).

Amino acid sequences for entries named in this document (tags omitted).
UniProt P09874, whole entry: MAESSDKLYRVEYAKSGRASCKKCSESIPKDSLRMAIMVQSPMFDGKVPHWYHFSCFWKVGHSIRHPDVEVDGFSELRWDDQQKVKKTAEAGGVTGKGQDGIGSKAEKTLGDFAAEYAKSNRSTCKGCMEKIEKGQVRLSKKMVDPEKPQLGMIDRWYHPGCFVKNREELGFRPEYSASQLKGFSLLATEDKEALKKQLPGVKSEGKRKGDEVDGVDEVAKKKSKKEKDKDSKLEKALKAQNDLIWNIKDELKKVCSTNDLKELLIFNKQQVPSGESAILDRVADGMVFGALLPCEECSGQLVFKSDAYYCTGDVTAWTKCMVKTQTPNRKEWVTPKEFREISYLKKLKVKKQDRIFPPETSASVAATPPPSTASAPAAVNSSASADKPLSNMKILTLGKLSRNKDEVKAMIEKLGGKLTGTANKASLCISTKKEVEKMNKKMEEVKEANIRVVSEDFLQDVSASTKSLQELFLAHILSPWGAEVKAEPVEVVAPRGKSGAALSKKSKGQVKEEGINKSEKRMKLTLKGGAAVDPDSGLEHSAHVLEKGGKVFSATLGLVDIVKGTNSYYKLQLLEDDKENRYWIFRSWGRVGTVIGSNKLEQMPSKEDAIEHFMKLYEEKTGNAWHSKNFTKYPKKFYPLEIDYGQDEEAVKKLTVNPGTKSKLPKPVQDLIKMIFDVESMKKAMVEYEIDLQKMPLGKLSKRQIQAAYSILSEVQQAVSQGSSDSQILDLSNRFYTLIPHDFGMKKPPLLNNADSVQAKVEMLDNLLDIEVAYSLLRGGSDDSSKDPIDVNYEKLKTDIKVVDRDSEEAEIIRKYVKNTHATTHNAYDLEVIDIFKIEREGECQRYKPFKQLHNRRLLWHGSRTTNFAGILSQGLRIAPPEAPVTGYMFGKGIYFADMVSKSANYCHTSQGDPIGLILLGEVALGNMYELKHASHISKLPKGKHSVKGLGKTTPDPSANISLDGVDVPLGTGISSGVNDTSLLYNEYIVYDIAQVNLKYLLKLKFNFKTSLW

Target: Poly [ADP-ribose] polymerase 1 (Homo sapiens, UniProt P09874)

Q: For O=c1[nH]c2cc(CN3CC=C(c4ccccc4)CC3)ccc2c2ccccc12, which IC50 is on record?
A: The IC50 was 16 nM.
